In one test the target is T1, ERβ (Homo sapiens, UniProt Q92731).
T1 construct: expressed in transfected cells; host or cells: U-2 OS
As to the kind of experiment: Transient transfection of U-2 OS cells with ERβ and ERE luciferase reporter, with or without COASTER. It counts as cell-based. As to conditions: 10^−7 M ligand.

Chains of the proteins cited; added tags and fusions are not shown.
UniProt Q92731, whole entry: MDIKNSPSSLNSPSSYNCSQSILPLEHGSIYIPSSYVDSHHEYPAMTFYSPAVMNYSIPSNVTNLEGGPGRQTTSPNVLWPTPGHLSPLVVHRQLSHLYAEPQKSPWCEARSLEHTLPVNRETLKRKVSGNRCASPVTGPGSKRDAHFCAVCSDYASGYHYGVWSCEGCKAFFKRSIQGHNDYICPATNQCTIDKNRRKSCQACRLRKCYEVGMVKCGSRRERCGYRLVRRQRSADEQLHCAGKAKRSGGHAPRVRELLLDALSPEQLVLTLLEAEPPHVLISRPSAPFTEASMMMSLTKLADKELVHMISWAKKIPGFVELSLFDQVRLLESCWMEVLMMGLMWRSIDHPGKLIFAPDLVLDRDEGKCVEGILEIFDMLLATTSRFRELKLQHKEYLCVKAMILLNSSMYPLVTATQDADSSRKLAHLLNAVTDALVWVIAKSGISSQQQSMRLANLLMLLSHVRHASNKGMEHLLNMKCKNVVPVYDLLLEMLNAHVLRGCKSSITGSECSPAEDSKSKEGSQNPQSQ

The next test addresses ERβ and COASTER (Homo sapiens, UniProt Q92731). Briefly: Yeast two-hybrid assay, β-galactosidase reporter, ERβ with COASTER amino acids 1-234. Conditions: yeast AH109, pGBT9.ERβ + pACT2.COASTERΔ; 10^−8 M 17β-estradiol, 10^−5 M raloxifen.

Here are results for 1 molecule from patent US7354728B2, “Coactivation of nuclear receptors” (N.V. Organon, priority 2000, dated 2008).

Regarding `O=C(c1ccc(OCCN2CCCCC2)cc1)c1c(-c2ccc(O)cc2)sc2cc(O)ccc12` [raloxifen], at ERβ, the “ERβ-mediated transcription with cotransfected COASTER, ERE reporter (FIG. 4)” value is “not when ERβ is present as the estrogen receptor”. Moreover, at ERβ and COASTER, the “β-galactosidase reporter activity (ERβ-COASTER interaction, FIG. 3)” value is “not able to induce”.
